# Measured values as given in ChEMBL document CHEMBL1136643, “Identification of a novel series of selective 5-HT7 receptor antagonists” (Bioorg Med Chem Lett, 2003).
# Chains of the proteins cited; added tags and fusions are not shown.
# UniProt P14416, whole entry: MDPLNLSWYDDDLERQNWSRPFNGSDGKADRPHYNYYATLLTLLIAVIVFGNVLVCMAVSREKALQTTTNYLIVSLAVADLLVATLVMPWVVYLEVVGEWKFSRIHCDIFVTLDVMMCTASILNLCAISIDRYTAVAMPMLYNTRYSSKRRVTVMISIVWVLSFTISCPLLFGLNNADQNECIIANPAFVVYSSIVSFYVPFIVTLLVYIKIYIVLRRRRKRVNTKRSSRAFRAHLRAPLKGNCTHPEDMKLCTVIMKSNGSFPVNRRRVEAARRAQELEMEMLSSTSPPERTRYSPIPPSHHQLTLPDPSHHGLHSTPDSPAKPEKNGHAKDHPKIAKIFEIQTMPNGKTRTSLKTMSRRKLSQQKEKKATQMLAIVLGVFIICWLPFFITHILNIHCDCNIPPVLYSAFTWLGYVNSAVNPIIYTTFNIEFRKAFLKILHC
# Molecular target: D(2) dopamine receptor (Homo sapiens, UniProt P14416)
# Assay: Binding affinity towards cloned human dopamine D2 receptor was determined
smiles,measurement,value
O=C1c2ccccc2CCCN1CCN1CCC(n2c(=O)[nH]c3cc(F)ccc32)CC1,Ki,234 nM
